ChEMBL document CHEMBL4837263, “N-Aromatic-Substituted Indazole Derivatives as Brain-Penetrant and Orally Bioavailable JNK3 Inhibitors” (ACS Med Chem Lett, 2021)

The chains behind the UniProt entries cited, without tags or fusion partners.
UniProt Q16539, whole entry: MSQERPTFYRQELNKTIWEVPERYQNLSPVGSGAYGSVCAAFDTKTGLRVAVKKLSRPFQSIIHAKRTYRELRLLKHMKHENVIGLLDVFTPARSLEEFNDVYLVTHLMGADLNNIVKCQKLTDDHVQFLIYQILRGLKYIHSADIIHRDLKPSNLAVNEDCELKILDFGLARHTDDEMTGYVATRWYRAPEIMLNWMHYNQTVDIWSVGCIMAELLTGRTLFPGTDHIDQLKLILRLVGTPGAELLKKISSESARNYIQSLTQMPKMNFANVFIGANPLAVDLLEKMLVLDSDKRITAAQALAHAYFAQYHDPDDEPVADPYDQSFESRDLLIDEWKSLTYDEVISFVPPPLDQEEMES

Target: Mitogen-activated protein kinase 14 (Homo sapiens, UniProt Q16539)
Assay: Inhibition of human p38alpha using MBP as substrate by [gamma-33P]-ATP assay

## Cc1nc2c(cnn2-c2csc(C(=O)NC3COC3)c2)cc1Nc1c(F)cccc1Cl
  IC50: 110 nM
